Data taken from PubChem BioAssay AID652106 (National Center for Advancing Translational Sciences (NCATS), 2013).
The list shows a part of the results, in another mix than the full data. Active and inactive are the calls of the source. Calls follow the shape of the dose curve; as a rule, active = well fitted activation curve with a large enough effect; inconclusive = small, poorly fitted or top-dose-only effect; inactive = no such curve, though single readings can be large or run the other way.

Assay: qHTS of alpha-syn Inhibitors; also: % of control where 0% means no effect; nearly all actives have a fitted effect of over 65% in size
Conditions: Yeast expressing alpha-synuclein, BacTiter-Glo, 24 h; at 46.1 µM (top of the series)
Source text: The goal of this project is to identify new chemical probes capable of reversing the toxicity associated with the Parkinson disease-related protein, alpha-synuclein. Compounds will be selected on their ability to restore growth in yeast cells expressing toxic levels of alpha-synuclein. These compounds will provide a complementary approach to deciphering the tangled mechanisms of toxicity and protection that we have uncovered through genome-wide genetic screens and are beginning to uncover in a large-scale proteomics analysis with mass spectroscopy. To this end, a miniaturized assay was developed to be screened against the Molecular Libraries Small Molecule Repository (MLSMR) to discover alpha-synuclein inhibitors. Please note that in the set-up this yeast-based assay compounds that inhibit as alpha-syn, have a read-out as activators. NIH Chemical Genomics Center [NCGC] NIH Molecular Libraries Probe Centers Network [MLPCN] MLPCN Grant: NS060957 Assay Submitter (PI): Susan Lindquist, Whitehead Institute/MIT
Dispense 2.5 microL yeast galactose medium per 1536-well plate, pin compound, dispense 2.5 microL alpha-synuclein expressing yeast in galactose medium at OD600=0.02 (pregrown in raffinose medium to mid-log phase) per well, incubate for 24 hr at 30 deg C, and cell growth will be measured using 5 microL of Bactiter/Glo reagent to entire plate and read using Luminescence Protocol in ViewLux.

Structure (SMILES) | growth rescue (activation)
O=[N+]([O-])c1cc([N+](=O)[O-])c(Nc2nnnn2CCO)c([N+](=O)[O-])c1 | inactive: -6.99%
CC1=C2N=C(C=C3N=C(C(C)=C4[N-][C@@](C)([C@@H]5N=C1[C@](C)(CCC(=O)NC[C@@H](C)OP(=O)([O-])O[C@H]1[C@@H](O)[C@@H](n6cnc7cc(C)c(C)cc76)O[C@@H]1CO)[C@H]5CC(N)=O)[C@@](C)(CC(N)=O)[C@@H]4CCC(N)=O)[C@@](C)(CC(N)=O)[C@@H]3CCC(N)=O)C(C)(C)[C@@H]2CCC(N)=O.[C-]#N.[Co+3] | inactive: -12.8%
COc1ccccc1OP(C)(=O)Nc1c(C)cccc1C (stereo not given) | inactive: -1.81%
CN1CCCCC1COC(=O)C1(O)c2ccccc2CCc2ccccc21 (stereo not given) | inactive: -1.55%
CP(=O)(Nc1ccc(SC(F)(F)F)cc1)Oc1ccccc1 (stereo not given) | inactive: 6.05%
CCCOc1ccc(NP(C)(=O)Oc2ccc(Cl)cc2)cc1 (stereo not given) | inactive: 4.78%
O=[N+]([O-])c1cc([N+](=O)[O-])c(-n2nnc3ccccc32)c([N+](=O)[O-])c1 | inactive: 0.45%
CN(Cc1cccnc1)C(=O)COc1ccc(Cl)c(Cl)c1.O=[N+]([O-])c1cc([N+](=O)[O-])c(O)c([N+](=O)[O-])c1 | inactive: 7.79%
O=[N+]([O-])c1cc([N+](=O)[O-])c(-c2cnn(-c3ccccc3)c2)c([N+](=O)[O-])c1 | inactive: -25.3%
Cc1nc2ccc3ccccc3c2s1.O=[N+]([O-])c1cc([N+](=O)[O-])c(O)c([N+](=O)[O-])c1 | inactive: -10.5%
COc1ccccc1OP(C)(=O)Nc1cccc(Br)c1 (stereo not given) | inactive: -10.6%
CCOC(=O)c1ccc(NP(C)(=O)Oc2cc(C)cc(C)c2)cc1 (stereo not given) | inactive: 0.73%
Cc1ccc(C)c(NP(C)(=O)Oc2ccccc2)c1 (stereo not given) | inactive: 9.86%
CP(=O)(Nc1cccc(Br)c1)Oc1ccccc1 (stereo not given) | inactive: 14.1%
Cc1cc(C)cc(OP(C)(=O)Nc2ccccn2)c1 (stereo not given) | inactive: -12.3%
CC1=NCCc2c1[nH]c1ccccc21.O=[N+]([O-])c1cc([N+](=O)[O-])c(O)c([N+](=O)[O-])c1 | inactive: -6.81%
O=[N+]([O-])c1cc([N+](=O)[O-])c(Nc2cccnc2)c([N+](=O)[O-])c1 | inactive: -16.1%
O=[N+]([O-])c1ccc2c(c1)C=Nc1ccccc1O2 | inactive: 7.59%
Cc1cccc(C)c1OP(C)(N)=O (stereo not given) | inactive: -1.66%
CC(C)(C)c1ccc(OP(C)(=O)Nc2ccc(SC(F)(F)F)cc2)cc1 (stereo not given) | inactive: -14.2%
